# AlphaSeq binding of Ab-91 heavy chain variants to a spike HR2 peptide

The target is the same throughout: PDVDLGDISGINAS, from the HR2 region of SARS-CoV-2 spike.

Parent scFv Ab-91: VL joined to VH by a (GGGGS)3 linker. Changes lie in the heavy chain CDRs alone.
VL: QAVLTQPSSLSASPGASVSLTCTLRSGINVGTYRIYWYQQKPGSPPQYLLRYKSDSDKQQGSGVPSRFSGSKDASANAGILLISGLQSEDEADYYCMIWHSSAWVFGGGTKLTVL
VH: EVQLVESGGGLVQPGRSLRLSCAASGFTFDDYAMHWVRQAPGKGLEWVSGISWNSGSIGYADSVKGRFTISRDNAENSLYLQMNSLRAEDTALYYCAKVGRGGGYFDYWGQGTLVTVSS

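Phage display of a naive human antibody library on the peptide gave the parent. In library AAYL51, one, two or three CDR residues were substituted; doubles and triples were drawn at random. The assay is AlphaSeq: two haploid yeast populations carry antibody and antigen on their surface. Binding brings cells together so that they mate, and sequencing counts the barcode pairs among the diploids. Read counts were normalised to the haploid input and turned into Kd by a linear fit to BCL2-family pairs of known affinity, for each replicate. Each pool was mated in three replicate cultures.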

Positions count from residue 1 of the parent VH; T28E puts E in place of T. All variants listed here change D107 of the VH, counted from its first residue. Values are log10 of the apparent Kd in nM; lower means stronger binding. The mean shown is taken over the replicates in which the pair was detected. A pair that was not seen in that replicate is written "ND"; this usually means weak binding, but a binder can also be missed. Order: sorted from the lowest average up, undetected variants last.

- T28E Y105C D107N -> 1.82, 2.13, 1.57 (mean 1.84; controls 2 of 9)
- T28W D31H D107H -> 2.13, 2.09, 1.76 (mean 1.99; controls 5 of 9)
- S63M Y105N D107Q -> 2.30, 2.27, 2.50 (mean 2.35; controls 1 of 9)
- G103I D107S -> ND, ND, 2.56 (controls 0 of 9)
- W53S K65I D107L -> 2.92, ND, ND (controls 0 of 9)
- W53N G100P D107K -> 2.87, 2.79, 3.23 (mean 2.96; controls 4 of 9)
- I51G A61K D107W -> ND, ND, 3.00 (controls 2 of 9)
- I58Q D107C -> ND, 3.17, ND (controls 1 of 9)
- F27Y D107V -> 3.50, ND, ND (controls 2 of 9)
- G100N Y105P D107N -> ND, ND, 3.55 (controls 2 of 9)
- A61I R101P D107N -> 3.39, 3.95, 3.37 (mean 3.57; controls 0 of 9)
- S55T Y105S D107E -> 3.88, 3.62, ND (mean 3.75; controls 3 of 9)
- F106Q D107T -> 3.77, 4.38, 3.30 (mean 3.81; controls 2 of 9)
- G26C R101D D107I -> ND, 3.94, ND (controls 0 of 9)
- D31C G104A D107R -> 4.16, 3.85, ND (mean 4.00; controls 3 of 9)
- G56P D107L -> ND, 4.01, ND (controls 1 of 9)
- D31H K65C D107K -> 4.13, ND, ND (controls 1 of 9)
- D107L -> 4.47, ND, 4.01 (mean 4.24; controls 4 of 9)
- G56H D107N -> 4.80, 3.86, ND (mean 4.33; controls 1 of 9)
- G26S K65R D107G -> 4.38, 4.35, ND (mean 4.37; controls 4 of 9)
- H35F A61T D107H -> 4.24, ND, 4.52 (mean 4.38; controls 2 of 9)
- G102N Y105C D107K -> 4.77, 4.52, 4.31 (mean 4.53; controls 7 of 9)
- Y60N K65N D107G -> ND, 6.21, 2.91 (mean 4.56; controls 2 of 9)
- G50D S55D D107F -> ND, 4.57, ND (controls 2 of 9)
- G26E M34F D107N -> ND, ND, 4.59 (controls 2 of 9)
- G56E G59T D107M -> 4.28, 4.97, ND (mean 4.62; controls 3 of 9)
- F27H W53Q D107A -> 4.81, ND, ND (controls 2 of 9)
- W53Y F106A D107Q -> 4.84, ND, ND (controls 3 of 9)
- H35E D107S -> ND, 4.89, ND (controls 2 of 9)
- T28Y M34F D107H -> 5.11, ND, 4.89 (mean 5.00; controls 7 of 9)
- F29H R101V D107I -> 5.14, ND, ND (controls 0 of 9)
- N54F G59H D107P -> 5.15, 5.08, 5.44 (mean 5.22; controls 4 of 9)
- N54G D62A D107P -> 6.01, 4.94, ND (mean 5.47; controls 4 of 9)
- N54S V64P D107V -> 5.77, ND, 5.19 (mean 5.48; controls 3 of 9)
- D107R -> 4.90, 5.00, 6.69 (mean 5.53; controls 6 of 9)
- S52Q W53L D107A -> ND, 6.06, ND (controls 1 of 9)
- S63W D107V -> 6.21, 6.23, ND (mean 6.22; controls 4 of 9)
- F27P K65A D107V -> ND, ND, ND (controls 0 of 9)
- N54E D62I D107S -> ND, ND, ND (controls 0 of 9)
- I51E N54T D107T -> ND, ND, ND (controls 1 of 9)
- F29C S55P D107I -> ND, ND, ND (controls 1 of 9)
- W53Q A61M D107R -> ND, ND, ND (controls 3 of 9)
- M34C V64A D107L -> ND, ND, ND (controls 0 of 9)
- W53Q G59W D107A -> ND, ND, ND (controls 2 of 9)
- N54V K65I D107E -> ND, ND, ND (controls 2 of 9)
- A33E V99Y D107A -> ND, ND, ND (controls 0 of 9)
- G50I D62R D107V -> ND, ND, ND (controls 0 of 9)
- A33P D62M D107K -> ND, ND, ND (controls 0 of 9)
- G102W D107M -> ND, ND, ND (controls 0 of 9)
- D31Y F106W D107P -> ND, ND, ND (controls 0 of 9)
- G102D F106A D107M -> ND, ND, ND (controls 0 of 9)

Extract of 3 entries:

{"changes": "T28E Y105C D107N", "log10 Kd, replicates": "1.82, 2.13, 1.57", "log10 Kd (nM), mean": "1.84", "control signals": "2/9"}
{"changes": "G100N Y105P D107N", "log10 Kd, replicates": "ND, ND, 3.55", "log10 Kd (nM), mean": "3.55", "control signals": "2/9"}
{"changes": "D107L", "log10 Kd, replicates": "4.47, ND, 4.01", "log10 Kd (nM), mean": "4.24", "control signals": "4/9"}

Empty control strains, which show no peptide, gave a signal in 21% of pairings with library AAYL51; the median was 4.54 and 95% of these signals were weaker than 3.26. No background was subtracted. For each scFv, signals with the empty controls are counted beside the result.

Reference: Engelhart et al. 2022, doi:10.1038/s41597-022-01779-4. File: FLAb, binding data.